Drawing on PubChem BioAssay AID652087 (The Scripps Research Institute Molecular Screening Center, 2013), this text covers inhibition for one molecule.

Sequences of proteins named here, by UniProt entry; tags and fusion partners are left off.
UniProt P21453, whole entry, looked up: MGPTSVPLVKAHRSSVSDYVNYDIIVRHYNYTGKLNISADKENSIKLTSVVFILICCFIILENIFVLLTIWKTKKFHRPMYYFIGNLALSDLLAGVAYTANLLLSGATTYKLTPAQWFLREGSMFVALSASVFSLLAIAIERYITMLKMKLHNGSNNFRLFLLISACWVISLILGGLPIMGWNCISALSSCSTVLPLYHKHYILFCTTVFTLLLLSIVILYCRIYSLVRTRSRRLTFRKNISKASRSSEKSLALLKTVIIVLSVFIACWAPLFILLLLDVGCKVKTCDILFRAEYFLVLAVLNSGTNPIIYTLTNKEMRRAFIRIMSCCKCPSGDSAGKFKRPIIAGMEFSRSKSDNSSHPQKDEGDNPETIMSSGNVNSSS

This assay concerns the target Sphingosine 1-phosphate receptor 1 (Homo sapiens) (UniProt P21453). Kind of assay: blockade of S1P-driven S1P1 signalling – cell-based, fluorescence, counter-screen for OPRK1 antagonist project, confirmation (AID 652087). Particulars: Tango EDG-1-bla U2OS, beta-lactamase FRET, S1P antagonism; at 9 µM; active compounds read high.

The source made the active and inactive calls.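 Rule for the calls: active = inhibition above 30%; inactive = inhibition at or below 30%.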

Take `Cc1csc2c(NC3CCN(Cc4ccccc4)CC3)ncnc12`: the inhibition (usually the drop in the measured response relative to a control, in per cent) was inactive: -10.5%.
